Values quoted from earlier work, collected in US20240041819A1, “SYSTEMS AND METHODS FOR ENHANCED FINE PARTICULATE DELIVERY IN FEED FOR ANIMALS” (SarTec Corporation, priority 2018, published 2024).

Conditions: in water, pH 7

monensin sodium
solubility: 4.8 µg/mL
